Ab-14 light chain CDR variants: yeast mating affinities

Binding partner: SARS-CoV-2 spike HR2 peptide, sequence PDVDLGDISGINAS.

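The parent was found by panning a naive human phage display library on the peptide. These sequences belong to a second round, designed from the earlier measurements on random variants of the parent. Several design methods are mixed in this list. In AlphaSeq, yeast of one mating type display the scFv and yeast of the other type display the target. After mating in shaken culture at 30 °C for 16 h, diploids were selected and their barcode pairs sequenced. Each replicate has its own calibration line, from reference interactions of the BCL2 family. Each pool was mated in six replicate cultures.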

Parent scFv Ab-14: VH joined to VL by a 15-residue (Gly4Ser)3 linker. Changes lie in the light chain CDRs alone.
VH: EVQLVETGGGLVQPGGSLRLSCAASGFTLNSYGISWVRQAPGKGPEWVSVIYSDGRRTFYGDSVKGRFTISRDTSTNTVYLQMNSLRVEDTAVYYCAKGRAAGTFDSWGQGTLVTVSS
VL: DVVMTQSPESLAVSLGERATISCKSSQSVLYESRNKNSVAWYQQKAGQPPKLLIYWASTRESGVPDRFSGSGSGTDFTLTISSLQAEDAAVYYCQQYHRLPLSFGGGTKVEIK

Positions count from residue 1 of the parent VL; S25L puts L in place of S. This list holds designs with at most six substitutions. Values are log10 of the apparent Kd in nM; lower means stronger binding. Replicates are averaged; those with no signal do not enter the mean. "ND" means that the variant was in the library but no mating with the target was seen in that replicate; the authors take this as a sign of poor binding, and no number exists. Order: sorted from the lowest average up, undetected variants last. In the paper, a design with two or fewer of six values counts as a poor binder. Three control strains display no target. For all light chain designs, 4% of the pairings with them gave a signal, with a median of 2.64 and one signal in twenty below 1.59, so weak values seen in few replicates may be background. The range of this assay differs from that of the first round, and the authors advise against merging the two. The parent sequence was in this pool as ten entries: three were never detected, three once, and four in most replicates, with averages from 0.34 to 2.37.

With S25L+V29E+W56N+S62H the result was -0.18, -0.39, -0.21, -0.14, -0.49, -0.24 (mean -0.28).
With S28G+V29N+W56N the result was 0.05, -0.24, -0.20, -0.27, -0.24, -0.18 (mean -0.18).
With K24H+Q27P+V29E+L30P+W56N+S62E the result was -0.22, -0.20, -0.08, -0.28, -0.38, 0.37 (mean -0.13).
With S25I+S33D+W56N+E61L the result was -0.10, 0.05, -0.29, -0.22, -0.19, 0.00 (mean -0.13).
With Q27I+V29Y+K36P+W56E+T59Y the result was 0.04, 0.48, -0.38, -0.23, -0.30, -0.36 (mean -0.12).
With Q27W+Y31T+W56D the result was 0.12, 0.20, 0.24, -0.35, -0.42, -0.34 (mean -0.09).
With S25F+N35T+K36Y+W56N+T59Q the result was 0.04, -0.10, 0.08, -0.11, -0.25, -0.10 (mean -0.07).
With S25L+L30W+Y31M+E32L+W56N+T59Y the result was 0.17, -0.15, -0.12, -0.15, 0.01, 0.14 (mean -0.02).
With V29Q+L30E+W56H+S62D the result was 0.12, 0.00, -0.03, -0.21, -0.01, 0.14 (mean 0.00).
With S25L+S28A+V29F+K36E+W56D+S58N the result was 0.08, 0.16, -0.21, -0.08, -0.09, 0.20 (mean 0.01).
With S25L+S26P+V29E+L30G+W56N+T59Q the result was 0.20, -0.02, 0.07, -0.04, 0.04, -0.07 (mean 0.03).
With S25F+W56N+T59Q+Q96D the result was 0.33, -0.21, -0.53, -0.35, 0.33, 0.67 (mean 0.04).
With S25Q+Q27E+R34V+W56D the result was 0.19, 0.10, -0.10, -0.06, 0.07, 0.04 (mean 0.04).
With Q27P+V29Y+W56E the result was 0.36, -0.04, -0.03, 0.03, -0.03, 0.29 (mean 0.10).
With Q27I+V29Y+W56A+T59M the result was 0.32, 0.11, 0.09, -0.11, 0.19, 0.25 (mean 0.14).
With S25F+V29W+L30G+W56G the result was 0.48, 0.10, 0.03, 0.01, 0.10, 0.32 (mean 0.17).
With Q27M+W56D the result was 0.26, 0.25, 0.03, 0.11, 0.26, 0.28 (mean 0.20).
With S25V+V29T+W56N+T59Q the result was 0.31, 0.23, 0.06, 0.26, 0.17, 0.32 (mean 0.23).
With E32Q+R34A+W56A the result was 0.08, 0.23, 0.43, 0.18, 0.08, 0.37 (mean 0.23).
With S25L+Q27F+S38N+W56E the result was 0.42, 0.09, 0.31, 0.21, 0.21, 0.15 (mean 0.23).
With S25I+K36W+S38A+W56E+T59Q the result was 0.49, 0.20, 0.20, 0.15, 0.12, 0.32 (mean 0.25).
With S25Y+S26Y+Q27P+V29Y+W56D+R99L the result was 0.04, 0.07, 0.01, 0.60, 0.67, 0.32 (mean 0.28).
With K36F+W56H+S62D the result was 0.60, 0.52, 0.24, 0.08, 0.12, 0.22 (mean 0.30).
With K24H+Q27P+E32D+S38H+W56N the result was 0.54, 0.37, 0.20, 0.20, 0.20, 0.37 (mean 0.31).
With S26V+V29W+W56H+T59Q+S62Q the result was 0.22, 0.57, -0.03, 0.43, 0.66, 0.15 (mean 0.33).
With S26G+S28G+S38Q+W56G the result was 0.34, 0.54, 0.52, 0.44, 0.42, 0.67 (mean 0.49).
With V29C+Y31N+R34L+W56N+E61L the result was 1.03, 1.30, 0.48, 0.69, 0.66, 0.53 (mean 0.78).
With S25L+S28E+W56G the result was 1.34, 1.10, 1.06, 1.11, 0.99, 1.09 (mean 1.11).
With S25I+V39L the result was 1.17, 1.43, 0.96, 1.13, 1.33, 0.85 (mean 1.14).
With L30R+Y31N+W56G+R99M the result was 1.04, 1.97, 1.37, 1.13, 1.95, 1.53 (mean 1.50).
With R34S+R99P the result was 1.56, 2.64, 1.07, ND, 1.31, ND (mean 1.65).
With L30A+Y31T+N35G the result was 1.41, 3.22, 0.83, 2.72, 1.51, 1.56 (mean 1.88).
With R34S+Y97H the result was 2.22, 2.14, 1.48, 1.58, 1.86, 1.99 (mean 1.88).
With R34P+S58E the result was 1.87, 2.11, ND, 2.11, 1.72, 2.13 (mean 1.99).
With Y31W+S33E the result was 1.74, 3.18, ND, 1.95, 1.20, 1.97 (mean 2.01).
With Q27P+K36L+W56T+H98M the result was ND, ND, ND, ND, 2.05, ND.
With Q27G+Y31E+R34S+H98V+L100Y the result was ND, 3.15, ND, ND, 2.65, 3.09 (mean 2.96).
With V29D+P101K the result was ND, ND, ND, ND, ND, ND.
With K24R+Q96D+L102F the result was ND, ND, ND, ND, ND, ND.
With N35R the result was ND, ND, ND, ND, ND, ND.
With V39I+T59V+Y97P the result was ND, ND, ND, ND, ND, ND.
With Q27I+S33D+R34T+W56M the result was ND, ND, ND, ND, ND, ND.

The first 6 entries again:

With S25L+V29E+W56N+S62H the result was -0.18, -0.39, -0.21, -0.14, -0.49, -0.24 (mean -0.28).
With S28G+V29N+W56N the result was 0.05, -0.24, -0.20, -0.27, -0.24, -0.18 (mean -0.18).
With K24H+Q27P+V29E+L30P+W56N+S62E the result was -0.22, -0.20, -0.08, -0.28, -0.38, 0.37 (mean -0.13).
With S25I+S33D+W56N+E61L the result was -0.10, 0.05, -0.29, -0.22, -0.19, 0.00 (mean -0.13).
With Q27I+V29Y+K36P+W56E+T59Y the result was 0.04, 0.48, -0.38, -0.23, -0.30, -0.36 (mean -0.12).
With Q27W+Y31T+W56D the result was 0.12, 0.20, 0.24, -0.35, -0.42, -0.34 (mean -0.09).

Values reported by Li et al. 2023, doi:10.1038/s41467-023-39022-2 (FLAb copy).